Measured values taken from PubChem BioAssay AID1460 (National Center for Advancing Translational Sciences (NCATS), 2008).
Only a part is listed here, and it is no random draw. Inconclusive results are not listed. Activity calls are given as the source filed them. The call rests on the fitted dose curve; in most records, active means well fitted inhibition curve with a large enough effect; inconclusive means small, poorly fitted or top-dose-only effect; inactive means flat fitted curve, though single readings scatter.
Further: nearly all actives have a fitted effect of over 55% in size.
On the % scale 0 is the no-effect control and ±100 the full control effect.

Sequences of proteins named here, by UniProt entry; tags and fusion partners are left off. Residues count along the entry.
UniProt P10636, 561-689 P618L limits assumed: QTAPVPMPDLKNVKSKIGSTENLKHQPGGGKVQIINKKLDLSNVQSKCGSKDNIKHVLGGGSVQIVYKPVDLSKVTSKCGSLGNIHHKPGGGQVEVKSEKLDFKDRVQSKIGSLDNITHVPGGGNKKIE

These compounds were tested against Microtubule-associated protein tau (Homo sapiens) (UniProt P10636) (assay: qHTS for Inhibitors of Tau Fibril Formation, Thioflavin T Binding). Conditions: recombinant tau K18 P301L (four-repeat tau fragment), heparin-induced fibrillization, ThT fluorescence; at 57.4 µM (top of the series).
For `O=C(OC1CN2CCC1CC2)C1c2ccccc2Oc2ccccc21` (configuration not stated), the activity, negative = inhibition was inactive: -7.84%. With `N#CC1(Nc2ccccc2)CCN(Cc2ccccc2)CC1` the activity, negative = inhibition was inactive: -9.41%. In the case of `CCOC(=O)N1CCC(Nc2ccc(OC)cc2)CC1`, the activity, negative = inhibition was inactive: -6.58%. In the case of `O=C(NCC1(N2CCOCC2)CCCCC1)c1cc2ccccc2o1`, the activity, negative = inhibition was inactive: -15.1%. `COc1ccc(C(=O)NCC2(N3CCCCC3)CCCCC2)c(OC)c1OC` was tested, and the activity, negative = inhibition was inactive: 2.8%. For `COc1ccccc1C(=O)NCC1(N2CCOCC2)CCCCC1`, the activity, negative = inhibition was inactive: -6.26%. With `COc1ccc(NC2CCN(CCc3ccccc3)CC2)c(OC)c1` the activity, negative = inhibition was inactive: -18.6%. `O=C(NCC1(N2CCOCC2)CCCCC1)c1ccc(Cl)cc1` was tested, and the activity, negative = inhibition was inactive: -1.43%. In the case of `O=C(NCC1(N2CCOCC2)CCCCC1)c1cc(=O)[nH]c2ccccc12`, the activity, negative = inhibition was inactive: -6.38%. In the case of `COc1ccc(NC2CCN(C(=O)OC(C)(C)C)CC2)cc1`, the activity, negative = inhibition was inactive: -16.4%. For `CN1CCN(CCOC(=O)C(O)(c2ccccc2)c2ccccc2)CC1`, the activity, negative = inhibition was inactive: -4.56%. `O=[N+]([O-])c1cc([N+](=O)[O-])c(NCC2CCS(=O)(=O)C2)c([N+](=O)[O-])c1` (configuration not stated) was tested, and the activity, negative = inhibition was inactive: -14.6%. For `CCCOc1cccc(C(=O)NCC2(N3CCOCC3)CCCCC2)c1`, the activity, negative = inhibition was inactive: 1.3%. For `N#CC1(Nc2ccccc2)CCN(CCc2ccccc2)CC1`, the activity, negative = inhibition was inactive: 2.65%. For `O=C(NCC1(N2CCCCC2)CCCCC1)c1cccc([N+](=O)[O-])c1`, the activity, negative = inhibition was inactive: 3.42%. With `CCOc1ccc(C(=O)NCC2(N3CCOCC3)CCCCC2)cc1` the activity, negative = inhibition was inactive: 1.98%. In the case of `CCCCOc1ccccc1C(=O)NCC1(N2CCOCC2)CCCCC1`, the activity, negative = inhibition was inactive: -13.4%. With `O=C(NCC1(N2CCOCC2)CCCCC1)c1ccccc1Br` the activity, negative = inhibition was inactive: 8.56%. For `O=C(OC1CN2CCC1CC2)c1ccc([N+](=O)[O-])cc1` (configuration not stated), the activity, negative = inhibition was inactive: -3.36%. `CC(C)c1ccc(NC2CCN(C(=O)OC(C)(C)C)CC2)cc1` was tested, and the activity, negative = inhibition was inactive: -11.8%. For `COc1ccc(CN(CCCl)CCCl)cc1Cl`, the activity, negative = inhibition was inactive: -6.81%. `CN(C)c1cccc(C(=O)NCC2(N3CCCCC3)CCCCC2)c1` was tested, and the activity, negative = inhibition was inactive: -8.85%. `O=C(OC1CN2CCC1CC2)C1c2ccccc2C=Cc2ccccc21` (configuration not stated) was tested, and the activity, negative = inhibition was inactive: -0.858%. `N/C(=N\O)c1c(N)no[n+]1[O-]` was tested, and the activity, negative = inhibition was inactive: 1.99%. For `COc1ccc(C(=O)NCC2(N3CCOCC3)CCCCC2)cc1OC`, the activity, negative = inhibition was inactive: -6.59%. For `c1ccc(CN2CCC(Nc3ccccc3)CC2)cc1`, the activity, negative = inhibition was inactive: -5.41%. In the case of `O=C(NCC1(N2CCOCC2)CCCCC1)c1ccccc1`, the activity, negative = inhibition was inactive: 2.03%. With `CCOC(=O)C(CC)C1=NC(C)(C)Cc2ccccc21.O=[N+]([O-])c1cc([N+](=O)[O-])c(O)c([N+](=O)[O-])c1` (configuration not stated) the activity, negative = inhibition was inactive: -5.59%. For `O=C(NCC1(N2CCOCC2)CCCCC1)c1ccccc1[N+](=O)[O-]`, the activity, negative = inhibition was inactive: -6.05%. With `N#Cc1ccc(C(=O)NCC2(N3CCCCC3)CCCCC2)cc1` the activity, negative = inhibition was inactive: -2.1%. With `O=C(NCC1(N2CCOCC2)CCCCC1)c1ccc([N+](=O)[O-])cc1` the activity, negative = inhibition was inactive: -5.17%. In the case of `Cc1ccccc1C(=O)NCC1(N(C)C)CCCCC1`, the activity, negative = inhibition was inactive: 5.38%. In the case of `CC(C)(C)c1ccc(C(=O)NCC2(N3CCOCC3)CCCCC2)cc1`, the activity, negative = inhibition was inactive: -6.85%. For `CN(C)c1ccc(C(=O)NCC2(N3CCCCC3)CCCCC2)cc1`, the activity, negative = inhibition was inactive: -5.02%. In the case of `CCN1CCC(Nc2cccc(F)c2)CC1`, the activity, negative = inhibition was inactive: -5.04%. With `Fc1ccccc1NC1CCN(Cc2ccccc2)CC1` the activity, negative = inhibition was inactive: -0.416%. `CN(C)C1(CNC(=O)c2ccc(C(C)(C)C)cc2)CCCCC1` was tested, and the activity, negative = inhibition was inactive: 1.64%. For `COc1cc(OC)cc(C(=O)NCC2(N3CCOCC3)CCCCC2)c1`, the activity, negative = inhibition was inactive: 4.78%. In the case of `COc1cc(C(=O)NCC2(N3CCOCC3)CCCCC2)cc(OC)c1OC`, the activity, negative = inhibition was inactive: 8.56%. `CCC(CO)(C(=O)OC1CN2CCC1CC2)c1ccccc1` (configuration not stated) was tested, and the activity, negative = inhibition was inactive: 3.92%. In the case of `CC(C)(C)OC(=O)N1CCC(Nc2ccccc2)CC1`, the activity, negative = inhibition was inactive: -8.46%. `CCOc1ncccc1C(=O)NCC1(N2CCOCC2)CCCCC1` was tested, and the activity, negative = inhibition was inactive: -2.66%.
